Measurements: US20250074946A1, “USE OF SE-DR AFFINITY PEPTIDE IN PREPARING DRUG FOR TREATING RHEUMATIC DISEASE” (HEBEI FITNESS BIOTECHNOLOGY CO., LTD., priority 2021, published 2025)

Columns and labels:
[1] = tested on: CIA mice infected with chronic hepatitis B; assay: CIA mice infected with chronic hepatitis B (Example 8); format: in vivo, mouse; details: for ALT level / Hepatitis B activation rate (Ratio of ALT > 100 U/L): at sacrifice, day 28; for Inflammation score and area under the time curve (AUC): peptides 50 μmol, Abatacept 100 μg, tail i.v. once every other day for 27 days
mice = details: preclinical carcinogenesis safety experiment; cited from earlier work
CIA mice = format: in vivo, mouse
[2] = inflammation score AUC, FNS007 0.2 mmol, abatacept 5 mg/kg, i.v. once every other day

abatacept
ALT level [1]: 103.59 ± 32.84 U/L
Hepatitis B activation rate (Ratio of ALT > 100 U/L) [1]: 50%
ALT level ([1]; listed as abatacept): significantly increased
Hepatitis B activation rate (Ratio of ALT > 100 U/L) ([1]; listed as abatacept): 50%
Observation on the daily condition of mice ([1]; during administration): obvious toxicity symptoms such as piloerection and reduced activity
Inflammation score and area under the time curve (AUC) [1]: 88.29 ± 48.40
Inflammation score and area under the time curve (AUC) ([1]; listed as abatacept): significantly reduce the inflammation score
mice in the treatment group died of lymphoma (mice): about 50%
inflammation score during drug discontinuation compared with that at the time of drug discontinuation (CIA mice; 28 days of observation after stopping at day 28): significantly increased
Pathological score during 28 days of drug discontinuation (CIA mice; HE staining of ankle joint, score 0-4): 2.89 ± 0.80
AUC, during drug discontinuation (day 29-56) (CIA mice; inflammation score AUC after stopping administration at day 28): 143.55 ± 77.82
AUC, during administration (day 1-28) (CIA mice; [2]): 89.16 ± 51.44
AUC, the first week during administration (CIA mice; [2]): 23.33 ± 9.17
AUC, during administration (day 1-28) (CIA mice; inflammation score AUC, FNS007 0.2 mmol, abatacept 5 mg/kg, i.v. once every other day, listed as abatacept): 89.16
Incidence of infection in mice (CIA mice; mouse, in vivo): 16.7%
Observation on the daily state of mice (CIA mice; mouse, in vivo): Piloerection, epistaxis, prostration, reduced activity, etc.

Where two headings read alike, the source gives them in different places.
